These results are taken from patent US8865865B2, “N-terminally modified tetrapeptide derivatives having a C-terminal arginine mimetic” (Philipps-Universitat Marburg, priority 2008, dated 2014).

The chains behind the UniProt entries cited, without tags or fusion partners. Residues count along the entry.
UniProt P09958, 108-794 limits assumed: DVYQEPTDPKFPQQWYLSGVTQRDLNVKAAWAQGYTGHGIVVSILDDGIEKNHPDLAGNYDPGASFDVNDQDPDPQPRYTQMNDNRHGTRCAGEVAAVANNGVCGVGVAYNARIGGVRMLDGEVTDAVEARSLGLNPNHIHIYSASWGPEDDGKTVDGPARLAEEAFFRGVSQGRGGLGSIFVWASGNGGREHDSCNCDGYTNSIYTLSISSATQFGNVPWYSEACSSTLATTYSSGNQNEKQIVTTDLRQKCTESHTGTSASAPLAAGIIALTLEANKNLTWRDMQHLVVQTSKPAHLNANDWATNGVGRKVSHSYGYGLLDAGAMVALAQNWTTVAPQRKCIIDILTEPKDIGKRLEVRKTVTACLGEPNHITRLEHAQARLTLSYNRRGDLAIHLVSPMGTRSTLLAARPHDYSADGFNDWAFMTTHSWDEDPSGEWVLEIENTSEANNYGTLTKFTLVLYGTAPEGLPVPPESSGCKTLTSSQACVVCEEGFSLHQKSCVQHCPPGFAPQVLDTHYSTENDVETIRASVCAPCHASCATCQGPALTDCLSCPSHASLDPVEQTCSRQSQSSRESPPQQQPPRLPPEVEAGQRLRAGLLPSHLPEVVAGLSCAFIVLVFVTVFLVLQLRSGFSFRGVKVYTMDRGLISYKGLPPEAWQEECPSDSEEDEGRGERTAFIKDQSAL

The assay addresses Recombinantly produced human furin (Homo sapiens, UniProt P09958). As to the kind of experiment: Enzyme kinetic studies to determine the inhibitory effect on furin (fluorogenic substrate Pyr-Arg-Thr-Lys-Arg-AMC). The note with it: read-out: Ki value for the inhibition of furin; Table 2; substrate 12.5 μM, furin approx. 0.95 nM, competitive reversible model; tested form: TFA.

For the compound `CC(C)[C@H](NC(=O)[C@H](CCCNC(=N)N)NC(=O)Cc1ccccc1)C(=O)N[C@@H](CCCNC(=N)N)C(=O)NCC1CCN(C(=N)N)CC1`, the Ki is 0.068 µM. Turning to `CC(C)[C@H](NC(=O)[C@H](CCCNC(=N)N)NC(=O)Cc1ccccc1)C(=O)N[C@@H](CCCNC(=N)N)C(=O)NCCCCCNC(=N)N`, the Ki is 1.6 µM.
